Test results published in patent US20150337056A1, “Method for Immediately Terminating Radical Polymerizations, Inhibitor Solution, and Use Thereof” (Allessa GmbH, priority 2013, published 2015).

Assay: Solubility and low-temperature stability of inhibitors in (poly)alkylene glycols
Conditions: in poly(alkylene) glycol(s)

Structure (SMILES): COc1ccc(O)cc1 [MEHQ, hydroquinone monomethyl ether]
- temperature down to which stable solutions are formed: −25 °C
